In patent US20180346555A1 (Regeneron, published 2018):

Biological target: T1, Hazel (Cor A 1, MyBiosource, Cat# MBS5304600) (Hazel, UniProt Q08407 2-160, limits assumed)
T1 construct: Bought reagent
T1 sequence (looked up): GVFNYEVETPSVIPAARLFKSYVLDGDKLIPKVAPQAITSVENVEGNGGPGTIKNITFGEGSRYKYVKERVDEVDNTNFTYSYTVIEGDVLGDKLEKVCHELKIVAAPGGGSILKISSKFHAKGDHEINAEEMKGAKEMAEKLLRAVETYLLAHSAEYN
Experiment: SPR Biacore 4000, mAb captured by anti-human Fc, 25 C;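 note: allergen analyte binding to captured, purified anti-Bet v 1 monoclonal antibodies, SPR in HEPES-buffered saline running buffer with EDTA and Tween-20 at pH 7.4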

B1: H4H17082P2 (antibody, human IgG4 S228P, kappa, V domains shown)
VH: QVQLVQSGAEVKKPGASVKVSCKASGYTFISYNIFWVRQATGQGLDWMGWMNPFRNNAGYAQKFQGRVTVTWDTSISTAYMELSSLSSEDTAIYYCAREHGSSWGFFDYWGQGTLVTVSS
VL: not shown
notes: human IgG4 Fc; also called REGN5715; MAB2
With B1 the Kd was 396 nM.
